Results published in patent publication US9663510B2, “Substituted triazolopyridines and their use as TTK inhibitors” (Bayer Intellectual Property GmbH, priority 2011, dated 2017).

System: HeLa human cervical tumor cells
Experiment: HeLa cell proliferation assay (crystal violet)
Format: cell-based
Conditions: 96 h, 4 days incubation, read-out: Inhibition of cell proliferation, cell Line: HeLa IC50
Experimental: Cultivated tumor cells (MCF7, hormone dependent human mammary carcinoma cells, ATCC HTB22; NCI-H460, human non-small cell lung carcinoma cells, ATCC HTB-177; DU 145, hormone-independent human prostate carcinoma cells, ATCC HTB-81; HeLa-MaTu, human cervical carcinoma cells, EPO-GmbH, Berlin; HeLa-MaTu-ADR, multidrug-resistant human cervical carcinoma cells, EPO-GmbH, Berlin; HeLa human cervical tumor cells, ATCC CCL-2; B16F10 mouse melanoma cells, ATCC CRL-6475) were plated at a density of 5000 cells/well (MCF7, DU145, HeLa-MaTu-ADR), 3000 cells/well (NCI-H460, HeLa-MaTu, HeLa), or 1000 cells/well (B16F10) in a 96-well multititer plate in 200 μl of their respective growth medium supplemented 10% fetal calf serum. […] Cell proliferation was determined by staining the cells with crystal violet: the cells were fixed by adding 20 μl/measuring point of an 11% glutaric aldehyde solution for 15 minutes at room temperature. […] The extinction was determined by photometry at a wavelength of 595 nm. The change of cell number, in percent, was calculated by normalization of the measured values to the extinction values of the zero-point plate (=0%) and the extinction of the untreated (0 μm) cells (=100%). The IC50 values were determined by means of a 4 parameter fit using the company's own software.

For `COc1cc(N2CCOC2=O)ccc1Nc1nc2ccc(-c3ccc(NC(=O)[C@H](C)c4ccc(F)cc4)cc3)cn2n1` [Example 01.09, (2R)-2-(4-fluorophenyl)-N-[4-(2-{[2-methoxy-4-(2-oxo-1,3-oxazolidin-3-yl)phenyl]amino}[1,2,4]triazolo[1,5-a]pyridin-6-yl)phenyl]propanamide], the IC50 was < 0.4 µM.
